Ab-14 light chain CDR variants: yeast mating affinities

From the AlphaSeq antibody data of Li et al. 2023 (doi:10.1038/s41467-023-39022-2), copy in the FLAb collection.

The target is the same throughout: PDVDLGDISGINAS, from the HR2 region of SARS-CoV-2 spike.

Parent scFv Ab-14: VH joined to VL by a (GGGGS)3 linker. Changes lie in the light chain CDRs alone.
VH: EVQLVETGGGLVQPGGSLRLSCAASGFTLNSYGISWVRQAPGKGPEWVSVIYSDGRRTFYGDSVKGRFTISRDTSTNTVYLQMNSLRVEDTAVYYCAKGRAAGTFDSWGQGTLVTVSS
VL: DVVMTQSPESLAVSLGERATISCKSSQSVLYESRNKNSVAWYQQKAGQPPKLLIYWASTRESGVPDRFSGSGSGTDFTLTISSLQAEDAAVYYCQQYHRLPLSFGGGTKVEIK

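The starting antibody came from a phage panning campaign against this peptide. This is the validation round: designs drawn from the data on random variants, tested in the same kind of assay. Group labels follow the data file (Ctrl: baseline library sampled from a position-specific scoring matrix, with some repeated check sequences; GP: Gaussian process model; HC: hill climbing; Gen: genetic algorithm; Gibbs: Gibbs sampling; a sequence that several methods proposed may carry one label only). AlphaSeq pools MATa yeast showing the antibodies with MATalpha yeast showing the peptide. Binding brings cells together so that they mate, and sequencing counts the barcode pairs among the diploids. Scores were corrected for input abundance and mapped to Kd with protein pairs of known affinity run in the same pool. Each pool was mated in six replicate cultures.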

Positions count from residue 1 of the parent VL; K36T puts T in place of K.
This list holds designs with at most six substitutions.
The Kd shown is the geometric mean over detected replicates; a lower Kd is a better binder.
A pair that was not seen in any replicate is written "nd"; this usually means weak binding, but a binder can also be missed.
Values of this round are not directly comparable with the first-round values of the same sequences.
The authors' rule: three or more of the six replicates give a measured affinity, fewer mean a poor binder.
Nonspecific signal, from three strains lacking the peptide, appeared in 4% of pairings of all light chain designs, centred on 430 nM (5% of these signals below 38 nM); values are not corrected for it.

With K36T/T59Y [Ctrl] the result was 250 nM (6 of 6 replicates). Variant K24H/S25L/V29Y/W56N [GP_Gen] gave 1.0 nM (6 of 6 replicates). Variant S25Q/Y31L/E32P/S62Y [Ctrl] showed nd (0 of 6 replicates). With S25F/Y31F/E32Q/S33W/W56D [GP_HC] the result was 1.1 nM (6 of 6 replicates). Variant V29Y/L102E [Ctrl] showed nd (0 of 6 replicates). For V29D/K36V/W56G/E61D [GP_HC], the assay gave 2.3 nM (6 of 6 replicates). Variant Q27F/V29Y/K36E/W56E/S62Q [GP_HC] gave 1.4 nM (6 of 6 replicates).

Variant S26Q/V29F/K36V/W56G [GP_HC] showed 650 pM (6 of 6 replicates). For N35D/T59I [Ctrl], the assay gave 15 nM (5 of 6 replicates). For S25V/L30Q/W56N [GP_Gen], the assay gave 4.0 nM (6 of 6 replicates). Variant S25L/V29W/W56G/A57V [GP_HC] showed 570 pM (6 of 6 replicates). Variant S25M/K36S/Q95S/H98A [Ctrl] gave 390 nM (4 of 6 replicates). Variant S25V/L30D/S33Q [Ctrl] gave 50 nM (6 of 6 replicates). For S25V/V29G/V39G [Ctrl], the assay gave nd (0 of 6 replicates).

Variant S25W/W56Q/L100N [Ctrl] gave 1.6 nM (6 of 6 replicates). Variant S25Q/L30K/Y31F/S38N/W56D [GP_HC] showed 590 pM (6 of 6 replicates). Variant S25L/S26Y/N35D/W56H/S62D [GP_HC] gave 2.7 nM (6 of 6 replicates). Variant Q27I/V29T/K36T/W56E [GP_HC] gave 2.4 nM (6 of 6 replicates). With S25M/Y31M/R34E/W56D [Ctrl] the result was 560 pM (6 of 6 replicates). Variant S25L/V29D/N35V/W56E [GP_HC] showed 2.9 nM (6 of 6 replicates). Variant S25L/N35L/W56N/E61M [GP_Gen] gave 970 pM (6 of 6 replicates).

With S25L/S26P/W56H/T59Q [GP_Gen] the result was 1.2 nM (6 of 6 replicates). Variant S25I/V29Y/W56E [GP_Gen] gave 690 pM (6 of 6 replicates). With Q27I/V29P/K36T/W56E [GP_HC] the result was 12 nM (6 of 6 replicates). For S25L/W56E/S62L [GP_Gen], the assay gave 580 pM (6 of 6 replicates). For K24I/S25F/Y31M/W56D [GP_HC], the assay gave 420 pM (6 of 6 replicates). For S25F/V29N/W56N/T59Q [GP_Gen], the assay gave 5.9 nM (6 of 6 replicates). For Q27I/V29Q/R34M/W56N [GP_HC], the assay gave 1.2 nM (6 of 6 replicates).

For S26G/S28G/K36P/W56G [GP_HC], the assay gave 490 pM (6 of 6 replicates). Variant S25V/V29E/W56N/T59Q [GP_Gen] gave 690 pM (6 of 6 replicates). Variant S25L/S26Q/K36P/W56N [GP_Gen] showed 260 pM (6 of 6 replicates). Variant S25M/Y31M/S33H/W56D/T59L [GP_HC] showed 700 pM (6 of 6 replicates). Variant Q27G/V29G/N35M/W56E [GP_HC] showed 930 pM (6 of 6 replicates). With S25L/K36F/W56E [GP_Gen] the result was 480 pM (6 of 6 replicates). For V29M/L30M/W56H/H98Y [Ctrl], the assay gave 820 pM (6 of 6 replicates).

For V29F/S33D/N35V/W56G [GP_HC], the assay gave 3.1 nM (6 of 6 replicates). Variant S25L/S26E/Q27F/S28L/V29H/W56Q [GP_Gibbs] showed 1.8 nM (6 of 6 replicates). With S25V/V29W/N35V/W56N/T59Q [GP_Gen] the result was 620 pM (6 of 6 replicates). For S25L/N35Q/W56N/T59Q/E61L [GP_Gen], the assay gave 890 pM (6 of 6 replicates). Variant S25V/S33E/W56D/T59Q [GP_Gen] showed 1.5 nM (6 of 6 replicates). Variant S25L/S26R/V29T/W56Y [GP_HC] gave 2.0 nM (6 of 6 replicates). Variant S25F/Q27D/Y31L/N35D/W56N [GP_HC] gave 1.6 nM (6 of 6 replicates).

For S25D/S28A/L30P/S33I/K36F/Q96T [Ctrl], the assay gave 1.8 µM (2 of 6 replicates). For V29Q/W56G/S62D/P101T [GP_HC], the assay gave 160 pM (2 of 6 replicates). Variant S25F/W56E/S62E [GP_Gen] showed nd (0 of 6 replicates). Variant V29P/W56Q [Ctrl] gave 1.2 nM (6 of 6 replicates).